Experimental findings from PMC9531372, “Metabolic profiling and pharmacokinetic studies of Baihu-Guizhi decoction in rats by UFLC-Q-TOF–MS/MS and UHPLC-Q-TRAP-MS/MS” (Chinese Medicine, 2022) are described below.

This data set in a line: Pharmacokinetics of five absorbed components in rat serum after single or multiple gavage of BHGZD (UHPLC-Q-TRAP-MS/MS). The source says: Male Lewis rats, weighing 200–240 g, were purchased from Beijing Charles River Experimental Animals Co. Ltd. (Beijing, China). […] Animal experiments were approved and supervised by the National Institutes of Health guide for the care and use of Laboratory animals. Every effort was made to minimize both the employed animal numbers as well as the potential discomfort of the animals throughout the study.
For single administration, rats were orally administrated with BHGZD powder at dose of 21.4 g/kg, which was equivalent to two-fold of clinical dose in human. […] For multiple administration, rats were intragastrically administered BHGZD (21.4 g/kg/day) once a day, for continuous 12 days. […] Serum was freshly prepared by centrifugation and stored at – 80 ℃ till analysis.
Quantification for five absorbed compounds of BHGZD in rat serum were achieved by using a Shimadzu ultra-high-performance liquid chromatography tandem ion trap quadrupole Q-TRAP 6500 plus mass spectrometry (UHPLC-Q-TRAP-MS/MS). Sample preparations were described above.
Chromatographic separation was carried out on a Poroshell 120 EC-C18 column (50 × 3.0 mm, 2.7 μm, Agilent, USA) with a flow rate 0.3 mL/min.
The optimized parameters for the mass spectrometer were set as follows: curtain gas, 35 psi; collision gas, medium; ionspray voltage, 4500 V; temperature, 550 °C; ion source gas 1 and 2, 55 psi. […] Data acquisition and analysis were achieved by OS-Q software (version 1.4.1.20719, AB Sciex, USA). Pharmacokinetic analysis was conducted by Drug and Statistic software (version 3.0, Shanghai, China).
The developed methodology was then applied for the in vivo pharmacokinetic evaluations of these five absorbed components. After single or multiple gavages of BHGZD, rat serum was collected at indicated time points, and the concentrations of five analyte were quantified accordingly.

The mark [1] stands for this setting: BHGZD 21.4 g/kg oral gavage, single dose, n = 8, mean ± SEM.
[2] abbreviates: BHGZD 21.4 g/kg/day gavage once a day for 12 days, multiple dose, sampled day 12, n = 8, mean ± SEM.

By Cmax is commonly meant the maximum level reached in the sampled fluid or tissue. For orientation: Tmax means the time from dosing to the highest level. With Liquiritin apioside, under setting [1], the “AUC(0–∞)” value stood at 28.06 ± 9.12, the Cmax came out at 2.74 ± 1.23 ng/mL, the “MRT(0–t)” value is recorded as 3.27 ± 0.80 and the “MRT(0–∞)” value was 12.17 ± 12.65. Also, under setting [1], the T1/2 was determined as 2.65 ± 1.57 h and the Tmax is on record as 4.00 ± 1.77 h. Under setting [2], the “AUC (0–t)” value turned out to be 44.96 ± 10.19, the “AUC(0–∞)” value is reported as 47.91 ± 11.00, the Cmax was 12.29 ± 2.01 ng/mL and the “MRT(0–t)” value is 3.15 ± 0.48. For the same substance, under setting [2], the “MRT(0–∞)” value is listed as 3.46 ± 0.69, the T1/2 was 1.18 ± 0.44 h and the Tmax turned out to be 3.62 ± 0.51 h.
